## scFv variants of Ab-14 (heavy chain) against a SARS-CoV-2 spike peptide

Binding partner: SARS-CoV-2 spike HR2 peptide, sequence PDVDLGDISGINAS.

The variants keep the light chain, the linker and the frameworks of Ab-14 (scFv order VH, a 15-residue (Gly4Ser)3 linker, VL).
VH: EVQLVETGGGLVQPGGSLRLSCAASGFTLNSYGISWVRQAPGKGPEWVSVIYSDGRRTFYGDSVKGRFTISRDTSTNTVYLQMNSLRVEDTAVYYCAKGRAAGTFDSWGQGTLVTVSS
VL: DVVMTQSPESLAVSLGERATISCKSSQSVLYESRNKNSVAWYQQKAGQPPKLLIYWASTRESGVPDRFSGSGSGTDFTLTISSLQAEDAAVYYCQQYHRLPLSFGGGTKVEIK

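In library AAYL49, one, two or three CDR residues were substituted; doubles and triples were drawn at random. In AlphaSeq, yeast of one mating type display the scFv and yeast of the other type display the target. The frequency of each diploid, read from paired DNA barcodes, reflects how well the two displayed proteins bind. The ratio of observed to expected reads was calibrated, replicate by replicate, on BCL2-family standards whose Kd was known from biolayer interferometry. The assay was run in three technical replicates.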

Variants are written as CDR1, CDR2 and CDR3 of the heavy chain (limits as in the source). Parent: GFTLNSYGIS, VIYSDGRRTFYGDSVK, GRAAGTFDS.
This list gathers variants with a substitution at I34 (VH, numbered from residue 1).
Affinities are written as log10 Kd with Kd in nM; a lower number is a better binder.
A pair that was not seen in that replicate is written "ND"; this usually means weak binding, but a binder can also be missed.
Empty control strains, which show no peptide, gave a signal in 15% of pairings with library AAYL49; the median was 4.06 and 95% of these signals were weaker than 2.83. No background was subtracted.
In this assay the parent's reference entry averaged 0.65; its copy inside this library read 4.11 (one replicate of three).

Variant GFTLNSYGHS / VIYSLGRRTFVGDSVK / GRAAGTFDS showed ND, ND, ND. Variant GFTLNSYGWS / VIYSDGRRTVYGDSVK / GRAAGTNDS showed 5.52, 5.52, ND. For GFTLNSYGNS / VIYSDGRRTFYGDSYK / GRAAGTFDS, the assay gave ND, ND, ND. For GFTLNLYGYS / VIYSDGRRTFYGDSVK / GRAAGTFLS, the assay gave ND, ND, ND. Variant GFMLNSYGAS / VIYSDGRRTFYNDSVK / GRAAGTFDS gave ND, ND, ND. Variant GFKLNSYGDS / VIYSDGRRTFYGWSVK / GRAAGTFDS gave ND, 3.82, ND. For GFTLNSYGLH / VIYSDGRRTFIGDSVK / GRAAGTFDS, the assay gave ND, ND, ND. Variant GFTLNNYGWS / VIYSDGRRTFYGDSVK / GRAAGTNDS showed 3.40, 3.38, ND. With GFTLNSYGAS / VIYSDGRRCFYGASVK / GRAAGTFDS the result was 6.60, ND, ND.

Variant GFTLNSYGLS / VIYSDGRRTFYIDSVK / GRAAGTFDS showed 2.17, 1.47, 1.19. With GFTLNSYGDS / VIYSDGRRRFYGDSVK / GRAAGRFDS the result was ND, ND, ND. Variant TFTLNSYGRS / VIYSDGRRTYYGDSVK / GRAAGTFDS gave ND, 4.02, ND. With GFTLNSYGAS / VIYSDGRRTFYRDSVK / SRAAGTFDS the result was 3.85, 3.06, 2.89. Variant GFTLNSYGNS / VIYSDGRRTFYGDSVK / GRAAVTFYS gave ND, ND, ND. With GFTLNSYGPS / VIYHDGRRTFYGDSVK / GRAAGTFTS the result was 2.55, 2.05, 2.32. Variant GFTLNSYGVS / VVYSDGRRKFYGDSVK / GRAAGTFDS gave 3.27, 2.95, 3.32. Variant GFTLNSYGFS / VIYSDGRRTFYGDSVK / GRQAGTFDS gave ND, ND, ND. Variant GFTLNSYGCS / VIYSDGRRTFYGDSVK / GGHAGTFDS showed ND, ND, ND.

Variant GFTLNSYGDS / VIYSDGRRTFYGDSVK / GFAAGTFSS showed ND, ND, ND. For GFTLNSYGLS / VIVSDGPRTFYGDSVK / GRAAGTFDS, the assay gave ND, ND, 3.24. Variant GFTLNSYGQS / VIYSDGRNTFYGDSVK / SRAAGTFDS gave ND, ND, ND. For GFTLNSYYLS / VIYSDGRRTFMGDSVK / GRAAGTFDS, the assay gave ND, ND, 5.33. Variant GFTLNSYGQS / VIPSDGRRTFYGDSVK / MRAAGTFDS gave 5.42, ND, ND. For GFTLNSYGCS / VIYSDGRRTFYGDSVK / GRAAGCFDG, the assay gave ND, ND, ND. Variant GFTLNSYGSS / VLYIDGRRTFYGDSVK / GRAAGTFDS showed ND, 4.43, ND. With GFTLNSRGMS / VIYSDGRRTFYGDSVE / GRAAGTFDS the result was ND, ND, ND. For GFFLNSYGYS / VIYSDGRRTFYGDSVK / GRYAGTFDS, the assay gave ND, ND, ND.

With GFTLNSYGSS / VIYSDGRRTFYIDSVK / GRAAGTWDS the result was ND, ND, ND. With GFTLNSYGDS / VIYSDGRRTFYGDPVK / YRAAGTFDS the result was 3.56, ND, 4.91. With GVTLNSYGCS / VIYSDGRRTFYGDSVK / GRAAGTFDS the result was ND, ND, ND. For GFTLNSFGWS / VIRSDGRRTFYGDSVK / GRAAGTFDS, the assay gave ND, ND, ND. Variant GFHLNSYGFS / VIYSDGRRTFYGDSVK / GRAGGTFDS gave 3.50, 3.46, 3.83. For ARTLNSYGES / VIYSDGRRTFYGDSVK / GRAAGTFDS, the assay gave ND, 3.22, ND. With GFTLNSYGAS / VIYSDGRRTFYGDVVK / GRKAGTFDS the result was ND, ND, ND. Variant GFYLNSYGNS / VIYSDGMRTFYGDSVK / GRAAGTFDS gave ND, ND, ND. Variant GFTLNSYGNS / VIYNDGRRTFYGDSVK / GRHAGTFDS showed ND, ND, ND.

4 of these entries, quoted again:

Variant GFKLNSYGDS / VIYSDGRRTFYGWSVK / GRAAGTFDS gave ND, 3.82, ND.
Variant GFTLNSYGCS / VIYSDGRRTFYGDSVK / GRAAGCFDG gave ND, ND, ND.
Variant GFYLNSYGNS / VIYSDGMRTFYGDSVK / GRAAGTFDS gave ND, ND, ND.
Variant GFTLNSYGVS / VVYSDGRRKFYGDSVK / GRAAGTFDS gave 3.27, 2.95, 3.32.

Reference: Engelhart et al. 2022, doi:10.1038/s41597-022-01779-4. File: FLAb, binding data.